For orientation: Km means the concentration of substrate that gives half-maximal velocity. As usually defined, the kcat is the number of substrate molecules converted per active site and unit of time at saturation. The term kcat/Km denotes the turnover number divided by the Michaelis constant.

What all share (conditions): Acinetobacter pittii
The subject of data set [1] is C[C@@H](O)[C@H]1C(=O)N2C(C(=O)O)=C(SCCNC=N)C[C@H]12. Description: Activity of Acinetobacter genomosp. 3 isolate 65 ADC-14.
For data set [2] the test system is unchanged. Description: Ratio of Kcat to Km for Acinetobacter genomosp. 3 isolate 65 ADC-14.
The subject of data set [3] is CO/N=C(\C(=O)N[C@@H]1C(=O)N2C(C(=O)O)=C(COC(C)=O)CS[C@H]12)c1csc(N)n1. Description: (§1) Activity of Acinetobacter genomosp. 3 isolate 195 ADC-18.
The subject of data set [4] is C[C@@H](O)[C@H]1C(=O)N2C(C(=O)O)=C(SCCNC=N)C[C@H]12. Described as §1.
The test system of data set [5] is C[C@H]1[C@H](NC(=O)/C(=N\OC(C)(C)C(=O)O)c2csc(N)n2)C(=O)N1S(=O)(=O)O. The description is as §1.
The subject of data set [6] is CC(C)(O/N=C(\C(=O)N[C@@H]1C(=O)N2C(C(=O)[O-])=C(C[n+]3ccccc3)CS[C@H]12)c1csc(N)n1)C(=O)O. As to the kind of experiment: (§2) Ratio of Kcat to Km for Acinetobacter genomosp. 3 isolate 195 ADC-18.
Data set [7] deals with CO/N=C(\C(=O)N[C@@H]1C(=O)N2C(C(=O)O)=C(COC(C)=O)CS[C@H]12)c1csc(N)n1. The data set is described as §2.
The test system of data set [8] is C[C@@H](O)[C@H]1C(=O)N2C(C(=O)O)=C(SCCNC=N)C[C@H]12. The data set is described as §2.
Data set [9] shares this test system. Description: Activity of Acinetobacter genomosp. 3 isolate 103 ADC-16.
Data set [10] has the same test system. Description: Ratio of Kcat to Km for Acinetobacter genomosp. 3 isolate 103 ADC-16.

In the case of “ADC-14 protein (Acinetobacter genomosp. 3) (from UniProt Q0VTR6)”, in data set [1], the Km turned out to be 2.29 µM and the kcat is 0.003 s⁻¹. Besides, the specificity constant (kcat/Km) in data set [2] was 1310 M⁻¹ s⁻¹.
For the substance “ADC-18 protein (Acinetobacter genomosp. 3) (from UniProt Q0VTS0)”, the results for the Km in data set [3], in [4] and in [5] were 0.2 µM, 2.51 µM and 4.54 µM, respectively. The values for the turnover number (kcat) in data set [3] and in data set [4] were 0.06 s⁻¹ and 0.02 s⁻¹, respectively. Also, the kcat/Km was found to be 307000 M⁻¹ s⁻¹ in data set [6], 307000 M⁻¹ s⁻¹ in data set [7] and 250 M⁻¹ s⁻¹ in [8].
For the substance “ADC-16 protein (Acinetobacter genomosp. 3) (from UniProt Q0VTR8)”, in [9], the Michaelis-Menten constant (Km) amounted to 2.56 µM and the catalytic constant (kcat) stood at 0.004 s⁻¹. In addition, the kcat/Km in data set [10] was 220 M⁻¹ s⁻¹.

For the origin of these results see ChEMBL document CHEMBL1649124, “Genetic variability among ampC genes from acinetobacter genomic species 3” (Antimicrob Agents Chemother, 2009).
